Apparent affinities of Ab-14 variants for a coronavirus HR2 peptide

Data: MIT Lincoln Laboratory AlphaSeq set, Li et al. 2023, doi:10.1038/s41467-023-39022-2, as distributed in FLAb.

Target peptide (SARS-CoV-2 spike, HR2 region): PDVDLGDISGINAS

Parent: Ab-14, a human scFv built as VH, the linker GGGGSGGGGSGGGGS, VL. Only the CDRs of the light chain vary.
VH: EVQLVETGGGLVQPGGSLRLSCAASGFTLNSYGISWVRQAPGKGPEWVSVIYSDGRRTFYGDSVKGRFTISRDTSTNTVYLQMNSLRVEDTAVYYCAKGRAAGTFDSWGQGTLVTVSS
VL: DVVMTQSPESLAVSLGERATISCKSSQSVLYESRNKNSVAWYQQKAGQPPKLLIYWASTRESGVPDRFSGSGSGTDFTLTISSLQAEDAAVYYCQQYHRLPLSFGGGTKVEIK

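The parent was found by panning a naive human phage display library on the peptide. These sequences belong to a second round, designed from the earlier measurements on random variants of the parent. Several design methods are mixed in this list. The scFvs were displayed on barcoded MATa yeast, the peptide on MATalpha yeast. After mating in shaken culture at 30 °C for 16 h, diploids were selected and their barcode pairs sequenced. A regression on co-assayed BCL2-family reference pairs converts the normalised counts of each replicate to an apparent Kd. There are six technical replicates.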

Variants are written as CDR1, CDR2 and CDR3 of the light chain (limits as in the source). Parent: KSSQSVLYESRNKNSVA, WASTRES, QQYHRLPLS. This list holds designs with at most six substitutions. Values are log10 of the apparent Kd in nM; lower means stronger binding. Averages over replicates are reported, and they cover detected replicates only. A pair that was not seen in that replicate is written "nd"; this usually means weak binding, but a binder can also be missed. The list is sorted by this average, lowest first, undetected variants last.

For HLQQSVLYESRNKNSVA, NASTRES, QQYHRLPLS, the assay gave -0.34, -0.42, -0.76, -1.01, -0.86, -0.63 (mean -0.67; controls 0 of 18).
For KLSNSVLYESRNKNNVA, EASTRES, QQYHRLPLS, the assay gave -0.31, -0.56, -0.68, -0.53, -0.73, -0.44 (mean -0.54; controls 0 of 18).
For KLSQSVEYESRNKNSVA, GASTRES, QQYHRLPLS, the assay gave -0.55, -0.25, -0.46, -0.42, -0.47, -0.26 (mean -0.40; controls 0 of 18).
For KLSQSMLYESRNKNSVA, DASTRMS, QQYHRLPLS, the assay gave -0.20, -0.33, -0.44, -0.42, -0.38, -0.18 (mean -0.32; controls 0 of 18).
For KVSQSKLYESRNKNNVA, EASTRES, QQYHRLPLS, the assay gave -0.20, -0.37, -0.47, -0.33, -0.47, -0.09 (mean -0.32; controls 1 of 18).
For KLPQSYLYESRNKNSVA, NASQRES, QQYHRLPLS, the assay gave -0.27, -0.21, -0.33, -0.43, -0.35, -0.24 (mean -0.31; controls 4 of 18).
For KMEQGVDYESRNKNSVA, GASVRES, QQYHRLPLS, the assay gave -0.10, -0.21, -0.48, -0.24, -0.49, -0.21 (mean -0.29; controls 0 of 18).
For KLSQSEGYESRNKNSVA, EASQRES, QQYHRLPLS, the assay gave 0.00, -0.27, -0.16, -0.45, -0.53, -0.13 (mean -0.25; controls 2 of 18).
For KVSQSMLYESRNKNSVA, EASQRES, QQYHRLPLS, the assay gave 0.06, -0.16, -0.30, -0.52, -0.24, -0.19 (mean -0.22; controls 1 of 18).
For KQSGSVLQESRNKNSVA, DASTRES, QQYHRLPLS, the assay gave 0.06, 0.00, -0.39, -0.33, -0.22, -0.08 (mean -0.16; controls 4 of 18).
For HLSDSVLYESRNKNSVA, NASTRES, QQYHRLPLE, the assay gave -0.01, -0.14, -0.22, -0.20, -0.18, 0.09 (mean -0.11; controls 0 of 18).
For KSSQSWGYESRNKNSVA, EASTRES, QQYHRLPLM, the assay gave -0.02, 0.04, -0.16, -0.35, -0.23, 0.10 (mean -0.10; controls 2 of 18).
For NVSQSWLYESRNKNSVA, GGNTRES, QQYHRLPLS, the assay gave -0.13, -0.16, 0.24, -0.23, -0.25, 0.28 (mean -0.04; controls 2 of 18).
For KLSQSFLYESRNKNSVA, AASTRES, QQYHRLPLS, the assay gave 0.00, -0.05, -0.15, 0.07, 0.03, 0.08 (mean 0.00; controls 1 of 18).
For KFSQSVLYESRNKNNVA, EASTRES, QQYHRLPLS, the assay gave 0.16, 0.02, -0.08, -0.27, 0.03, 0.19 (mean 0.01; controls 0 of 18).
For KVSQSWLYESRNKNSVA, NASERES, QQYHRLPLS, the assay gave 0.39, 0.03, 0.12, -0.44, -0.13, 0.10 (mean 0.01; controls 0 of 18).
For SLSQSVLYESRTKNSVA, NASTRES, QQYHRLPLS, the assay gave 0.13, -0.10, -0.05, -0.22, 0.26, 0.09 (mean 0.02; controls 0 of 18).
For KVSQSYLGESRNMNSVA, NASTREQ, QQYHRLPLS, the assay gave 0.17, 0.18, 0.06, -0.20, -0.09, 0.13 (mean 0.04; controls 0 of 18).
For KVMQSQLYESRNKNSVA, NASTRES, QQYHRLPLS, the assay gave 0.21, -0.01, 0.13, -0.30, 0.07, 0.16 (mean 0.04; controls 0 of 18).
For KLSQSDLYESRNKNQVA, GASTRES, QQYHRLPLS, the assay gave 0.44, -0.02, 0.12, -0.02, -0.09, -0.02 (mean 0.07; controls 0 of 18).
For KSSESYLYESRNENSVA, EASTREQ, QQYHRLPLS, the assay gave 0.22, 0.05, 0.07, 0.04, 0.12, 0.13 (mean 0.10; controls 0 of 18).
For KSSPVVLYESANKNSVA, NASTRMS, QQYHRLPLS, the assay gave 0.32, 0.18, 0.10, -0.06, 0.04, 0.24 (mean 0.13; controls 2 of 18).
For KLSQSVLYESRNKNSVA, NASYRMS, QQYHRLPLS, the assay gave 0.36, 0.22, 0.08, 0.16, 0.12, 0.14 (mean 0.18; controls 1 of 18).
For HSSQSVLYESRNGNSVA, NASTRES, QQYHRLPLS, the assay gave 0.70, 0.33, 0.18, 0.10, 0.11, 0.30 (mean 0.29; controls 0 of 18).
For KLQQSWLYESRNKNSVA, SASTRSS, QQYHRLPLS, the assay gave 0.34, 0.48, 0.20, 0.45, 0.13, 0.35 (mean 0.33; controls 2 of 18).
For KLKQSTLYESRNKNSVA, NASTRLS, QQYHRLPLS, the assay gave 0.47, 0.15, 0.61, 0.26, 0.49, 0.60 (mean 0.43; controls 1 of 18).
For HSSPSVLYESRNKNSVA, DASTRES, QQYHRLPLS, the assay gave 0.75, 0.93, 0.07, 0.89, 0.80, 0.75 (mean 0.70; controls 0 of 18).
For KSSQSVMGEQRNKNSVA, DISTRES, QQYHRLPLS, the assay gave 0.63, 0.56, 0.69, 1.17, 0.81, 0.63 (mean 0.75; controls 0 of 18).
For KCSQSVPNESRNKNSVA, WASTRSS, QQYHRLPFS, the assay gave 0.98, 0.87, 0.69, 1.23, 1.04, 0.99 (mean 0.97; controls 0 of 18).
For KSSQSCLYESENKNSVA, WASTRES, QQYTRLPLS, the assay gave nd, 1.11, nd, nd, nd, nd (controls 0 of 18).
For KVQQGYWYESRNKNSVA, WASTREV, QQYHRLPLS, the assay gave 1.19, 1.49, 0.93, 1.35, 0.73, 1.21 (mean 1.15; controls 1 of 18).
For KSSQSVLYESRNKNSVA, HASTRED, QQYHRLPLS, the assay gave 2.15, 1.29, 1.11, 0.88, 0.93, 0.92 (mean 1.22; controls 0 of 18).
For KLSQSNLYESRNKNAVA, NASTRES, QQYHRLPLS, the assay gave 1.19, 1.84, 1.11, 1.12, 1.29, 0.88 (mean 1.24; controls 0 of 18).
For KSSVSVLYESCNKNSVA, WASTRES, QQYHRLPLS, the assay gave nd, 1.31, nd, nd, 2.27, 1.62 (mean 1.73; controls 0 of 18).
For KSSQSVMYESRTSNSVA, WASTRES, QQYHRLPLS, the assay gave nd, 2.06, 1.56, nd, 2.03, nd (mean 1.88; controls 0 of 18).
For KSSQSVLYESRNKNPVA, SASTRES, QQYHRLPLF, the assay gave 2.51, 1.83, 2.25, 2.08, 1.96, 1.60 (mean 2.04; controls 1 of 18).
For KSSQSVLYESRNKNSVA, WASTREQ, QQYHRLPLS, the assay gave nd, nd, 1.56, nd, 2.47, 3.12 (mean 2.39; controls 0 of 18).
For KSSQIVLYESRNKNSVA, DASTRES, QQYHRDPLS, the assay gave nd, nd, 2.21, 2.06, nd, 3.78 (mean 2.68; controls 0 of 18).
For KSSQSVLYESRNKNNVA, WASTRES, QQYHIHPLS, the assay gave nd, nd, nd, nd, nd, nd (controls 0 of 18).
For KSSQSVLYESFNKNSVA, WASTRES, QQCDRLPLS, the assay gave nd, nd, nd, nd, nd, nd (controls 0 of 18).
For KSSCSVLYESRNKNSVA, WASTRES, QQYFRLPLS, the assay gave nd, nd, nd, nd, nd, nd (controls 1 of 18).
For KQSQSVMYESRNKNSVA, WATTRES, QQYHRLPLS, the assay gave nd, nd, nd, nd, nd, nd (controls 0 of 18).

Excerpt, the first 5 entries:

CDR-L1,CDR-L2,CDR-L3,"replicates, log10 nM","log10 Kd (nM), mean",control signals
HLQQSVLYESRNKNSVA,NASTRES,QQYHRLPLS,"-0.34, -0.42, -0.76, -1.01, -0.86, -0.63",-0.67,0 of 18
KLSNSVLYESRNKNNVA,EASTRES,QQYHRLPLS,"-0.31, -0.56, -0.68, -0.53, -0.73, -0.44",-0.54,0 of 18
KLSQSVEYESRNKNSVA,GASTRES,QQYHRLPLS,"-0.55, -0.25, -0.46, -0.42, -0.47, -0.26",-0.40,0 of 18
KLSQSMLYESRNKNSVA,DASTRMS,QQYHRLPLS,"-0.20, -0.33, -0.44, -0.42, -0.38, -0.18",-0.32,0 of 18
KVSQSKLYESRNKNNVA,EASTRES,QQYHRLPLS,"-0.20, -0.37, -0.47, -0.33, -0.47, -0.09",-0.32,1 of 18

A sequence measured in both rounds can read differently, since the two assays cover different ranges. The parent sequence was in this pool as ten entries: three were never detected, three once, and four in most replicates, with averages from 0.34 to 2.37. The authors' rule: three or more of the six replicates give a measured affinity, fewer mean a poor binder. Three control strains display no target. For all light chain designs, 4% of the pairings with them gave a signal, with a median of 2.64 and one signal in twenty below 1.59, so weak values seen in few replicates may be background. For each scFv, signals with the empty controls are counted beside the result.